{"source": "paper PMC4165442", "assay_in_all_cases": "SPR", "key": {"[1]": {"target": "TGF-β1:TβRII complex (biotinylated TGF-β1 surface with 4 μM TβRII in the buffer)"}, "[2]": {"target": "TGF-β3:TβRII complex (biotinylated TGF-β3 surface with 4 μM TβRII in the buffer)"}, "[3]": {"target": "TGF-β131:TβRII complex (biotinylated TGF-β131 surface with 4 μM TβRII in the buffer)"}}, "data": [{"substance": "TβRI-ED: residues 7–91 of the extracellular domain of the TGF-β type I receptor (domain or fragment)", "values": [{"measurement": "Kd", "setting": "[1]", "value": 240, "unit": "nM"}, {"measurement": "kon", "setting": "[1]", "value": 33000, "unit": "M⁻¹ s⁻¹"}, {"measurement": "Kd", "setting": "[2]", "value": 34, "unit": "nM"}, {"measurement": "koff", "setting": "[2]", "value": 0.0012, "unit": "s⁻¹"}, {"measurement": "kon", "setting": "[2]", "value": 35000, "unit": "M⁻¹ s⁻¹"}, {"measurement": "Kd", "setting": "[3]", "value": 51, "unit": "nM"}, {"measurement": "koff", "setting": "[3]", "value": 0.0026, "unit": "s⁻¹"}, {"measurement": "kon", "setting": "[3]", "value": 52000, "unit": "M⁻¹ s⁻¹"}]}]}
